One experiment addresses Substance-P receptor (Homo sapiens, UniProt P25103). The experiment can be described thus: Binding affinity in membrane preparations containing recombinant human Tachykinin receptor 1 in CHO cells by using [3H]-Sar SP as the radioligand. Format: cell membranes.
Another experiment deals with Substance-K receptor (Homo sapiens, UniProt P21452). As to the kind of experiment: Binding affinity in membrane preparations containing recombinant human Tachykinin receptor 2 in CHO cells by using [3H]NKA as the radioligand. In kind it is cell membranes.

Chains of the proteins cited; added tags and fusions are not shown.
UniProt P25103, whole entry: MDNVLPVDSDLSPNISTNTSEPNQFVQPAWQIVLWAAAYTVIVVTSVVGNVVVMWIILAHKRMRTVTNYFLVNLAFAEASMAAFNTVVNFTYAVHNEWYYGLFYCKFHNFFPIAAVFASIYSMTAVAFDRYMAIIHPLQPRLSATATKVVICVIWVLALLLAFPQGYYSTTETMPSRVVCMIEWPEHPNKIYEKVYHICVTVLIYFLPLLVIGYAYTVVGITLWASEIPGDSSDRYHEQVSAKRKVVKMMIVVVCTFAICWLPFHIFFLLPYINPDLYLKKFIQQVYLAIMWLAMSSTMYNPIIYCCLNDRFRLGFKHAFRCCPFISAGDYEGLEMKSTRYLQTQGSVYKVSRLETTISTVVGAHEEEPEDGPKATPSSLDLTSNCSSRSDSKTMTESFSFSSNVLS
UniProt P21452, whole entry: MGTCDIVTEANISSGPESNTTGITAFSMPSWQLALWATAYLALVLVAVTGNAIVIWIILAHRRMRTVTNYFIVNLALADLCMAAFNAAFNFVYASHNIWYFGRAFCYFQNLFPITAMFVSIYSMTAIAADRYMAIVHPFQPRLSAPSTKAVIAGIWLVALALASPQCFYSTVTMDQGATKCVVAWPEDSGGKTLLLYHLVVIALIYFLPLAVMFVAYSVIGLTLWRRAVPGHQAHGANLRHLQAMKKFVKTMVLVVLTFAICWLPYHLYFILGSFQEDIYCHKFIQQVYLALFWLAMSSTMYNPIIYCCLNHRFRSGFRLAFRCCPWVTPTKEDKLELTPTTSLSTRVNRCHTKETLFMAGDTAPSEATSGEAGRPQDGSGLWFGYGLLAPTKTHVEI

Take `O=C(c1cc(C(F)(F)F)cc(C(F)(F)F)c1)N1CCN(C(=O)CNC2CCN(Cc3ccccc3)CC2)[C@@H](c2ccc(Cl)c(Cl)c2)C1`: the Ki turned out to be 1.8 nM on Substance-P receptor and 270 nM at Substance-K receptor.

For the molecule `Cc1cc(C)cc(C(=O)N2CCN(C(=O)CNC3CCN(Cc4ccccc4)CC3)[C@H](c3ccc(Cl)c(Cl)c3)C2)c1`, at Substance-K receptor, the inhibition constant Ki was found to be 3.4 nM.

In the case of `Cc1cc(C)cc(C(=O)N2CCN(C(=O)CNC3CCN(Cc4ccccc4)CC3)C(c3ccc(Cl)c(Cl)c3)C2)c1` (configuration not stated), the Ki at Substance-K receptor came to 4.9 nM.

As for `O=C(c1cc(C(F)(F)F)cc(C(F)(F)F)c1)N1CCN(C(=O)CNC2CCN(Cc3ccccc3)CC2)C(c2ccc(Cl)c(Cl)c2)C1` (configuration not stated), the Ki on Substance-P receptor is 5.3 nM; at Substance-K receptor, 17 nM.

As to `Cc1cc(C)cc(C(=O)N2CCN(C(=O)CNC3CCN(Cc4ccccc4)CC3)[C@@H](c3ccc(Cl)c(Cl)c3)C2)c1`, the Ki at Substance-K receptor was 219 nM.
